Patent US20260232825A1, “LINKER-DRUG MOLECULE AND ANTIBODY DRUG CONJUGATE, PREPARATION METHOD THEREFOR AND USE THEREOF” (SHANGHAI ESCUGEN BIOTECHNOLOGY CO., LTD., priority 2023, published 2026)

Assay: Size exclusion chromatography (SEC) analysis of the antibody-drug conjugates
Type: physicochemical
Details: SEC purity of the antibody-drug conjugate
Protocol: Size exclusion chromatography (SEC) analysis column is Tskgel G3000SWXL (TOSOH, 0008541); mobile phase is 0.1 M PB, pH7.0, 0.1M NaCl; isocratic elution, flow rate: 1 mL/min; column temperature: 25° C. Detection wavelength is 280 nm and 366 nm, respectively. Hydrophobic interaction chromatography (HIC) analysis column is Butyl-NPR 4.6×100 mm (TOSOH, 0042168); mobile phase A is 50 mM PB, pH7.0, 1.5 M (NH4)2SO4; mobile phase B is 50 mM PB, pH7.0, 20% acetonitrile. Separation gradient: changing from 0% B to 100% B in 2-20 min, column temperature: 30° C., flow rate: 0.6 mL/min. Detection wavelength is 280 nm and 366 nm, respectively. The results are shown in Table 1 and FIG. 1-FIG. 6 (FIG. 1 comprises FIG. 1A and FIG. 1B; FIG. 2 comprises FIG. 2A and FIG. 2B; FIG. 3 comprises FIG. 3A, FIG. 3B, FIG. 3C, FIG. 3D, FIG. 3E, FIG. 3F, FIG. 3G and FIG. 3H; FIG. 4 comprises FIG. 4A and FIG. 4B; FIG. 5 comprises FIG. 5A and FIG. 5B; and FIG. 6 comprises FIG. 6A, FIG. 6B, FIG. 6C, […], FIG. 6E, FIG. 6F, FIG. 6G and […]).

Work on `CC[C@@]1(O)C(=O)OCc2c1cc1n(c2=O)Cc2c-1nc1cc(F)c(C)c3c1c2[C@@H](NC(=O)OCc1ccc(NC(=O)[C@H](C)NC(=O)[C@@H](NC(=O)[C@H](CCC(=O)O)NC(=O)CCCCCN2C(=O)C=CC2=O)C(C)C)cc1)CC3` [LD-27] yielded an SEC % of 89.22%.
